Patent US9840512B2, “Antidiabetic bicyclic compounds” (Merck Sharp & Dohme Corp., priority 2013, dated 2017)

Sequences of proteins named here, by UniProt entry; tags and fusion partners are left off.
UniProt O14842, whole entry: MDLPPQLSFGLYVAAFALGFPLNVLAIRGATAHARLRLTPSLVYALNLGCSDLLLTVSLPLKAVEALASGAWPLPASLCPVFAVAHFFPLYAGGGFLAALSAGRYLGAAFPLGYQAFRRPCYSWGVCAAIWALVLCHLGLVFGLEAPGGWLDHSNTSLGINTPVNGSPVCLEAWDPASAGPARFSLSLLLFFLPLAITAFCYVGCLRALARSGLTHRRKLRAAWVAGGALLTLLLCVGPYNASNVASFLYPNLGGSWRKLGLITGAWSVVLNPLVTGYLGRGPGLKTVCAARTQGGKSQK

Tests used:
human GPR40 [1] = target: T1, human GPR40 (Homo sapiens, UniProt O14842); assay: FLIPR assay (agonist-induced calcium mobilization); conditions: read-out: Human FLIPR EC50, nM or % activation (EC50 values); GPR40/CHO NFAT BLA cells
human GPR40 [2] = target: T1, human GPR40; assay: Inositol Phosphate Turnover (IP1) Assay 1; conditions: read-out: Human IP1 Assay 1, EC50; HEK cells stably expressing human GPR40

## CC#CC(CC(=O)O)c1ccc2c(c1)CCC(c1nc(-c3ccccc3C(F)(F)F)ccc1F)O2 (centres unmarked)
Human GPR40 [1]
  EC50: 61 nM
Human GPR40 [2]
  EC50: 447 nM
